# US8080659B2, “CXCR4 antagonists including diazine and triazine structures for the treatment of medical disorders” (Emory University, priority 2006, dated 2011)
# Protein sequences, listed by entry. Tags and fused reporters are not part of them.
# UniProt P61073, whole entry: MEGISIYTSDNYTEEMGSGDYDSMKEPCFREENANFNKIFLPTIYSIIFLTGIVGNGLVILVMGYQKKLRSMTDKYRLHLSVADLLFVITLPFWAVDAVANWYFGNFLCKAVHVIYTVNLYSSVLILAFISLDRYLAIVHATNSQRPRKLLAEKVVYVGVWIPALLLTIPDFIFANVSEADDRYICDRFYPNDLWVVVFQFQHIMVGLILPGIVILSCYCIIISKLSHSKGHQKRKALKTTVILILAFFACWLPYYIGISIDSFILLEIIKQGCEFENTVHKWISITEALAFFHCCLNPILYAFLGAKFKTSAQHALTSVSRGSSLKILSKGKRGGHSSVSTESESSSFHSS
# Experiments:
# CXCR4 = CXCR4 (Homo sapiens, UniProt P61073); experiment: SDF-1-stimulated Akt phosphorylation in MDA-MB-231 cells (western blot); conditions: 100 ng/ml SDF-1, 30 min, dose-dependent
# MDA-MB-231 cells = experiment: cell viability of MDA-MB-231 cells; format: cell-based, human; conditions: 100 μM (the highest concentration tested)
# Text: Using biotin-labeled TN14003 along with streptavidin-conjugated rhodamine allowed a determination of the binding efficiency of these chemicals to the SDF-1 binding site of CXCR4 on tumor cells and compared it to AMD3100-SDF-1 interactions (FIG. 7). […] On the other hand, some candidate compounds were as potent as TN14003 at very low concentrations. Therefore, one of these compounds, WZZL811S, was selected to study its therapeutic potential based on potency and low toxicity to cells (FIG. 9).
# [1] = tested on: human umbilical vein endothelial cells (HUVECs); experiment: endothelial capillary tube formation assay; format: cell-based; conditions: 100 nM; SDF-1 100 ng/ml; 18 hours
# Method: The anti-angiogenic effect of test compounds was measured by analyzing endothelial cell growth and tube formation. The angiogenic effect of SDF-1 (100 ng/ml) on capillary formation by human umbilical vein endothelial cells (HUVECs) was examined in vitro using Matrigel-coated 24-well plates precoated with Matrigel and incubated for 18 hours. The angiogenic effect of SDF-1 was inhibited by either 100 nM TN14003 (peptide-based CXCR4 antagonist) or WZZL811S treatment (FIG. 14a, graph FIG. 14b).
compound,measurement,setting,value
c1ccc(NCc2ccc(CNc3ccccn3)cc2)nc1,block of SDF-1-stimulated phosphorylation of Akt,CXCR4,blocked
same,cell viability,MDA-MB-231 cells,did not decrease cell viability
same,angiogenic effect of SDF-1 on capillary tube formation,[1],inhibited
